Source: patent US11732048B2, “Anti-axl antagonistic antibodies” (BERGEN TEKNOLOGIOVERFØRING AS, priority 2016, dated 2023)

System: A549 tumours
Assay: A549 human NSCLC xenograft in mice (Examples 14, 16, 17, 18)
Format: in vivo, mouse
Settings: NUDE mice, A549, i.p. twice weekly for 3 weeks
Method: To evaluate the anti-tumour activity of anti-Axl chimeric antibodies in vivo, we used a mouse xenograft model of human non-small cell lung cancer (NSCLC). The human NSCLC A549 cells (ATCC #CCL-185) A549 cells were propagated in vitro as a monolayer culture in DMEM medium supplemented with 10% FBS, 2 mM L-Glutamine, 100 U/ml penicillin and 100 μg/ml streptomycin, 0.01M HEPES buffer, 0.45% D-(+)-glucose, 1 mM sodium pyruvate. Nude mice were implanted subcutaneously (s.c.) into the flank with 5×10^6 A549 cells resuspended in serum-free medium/Matrigel (1:1). When the tumour size reached 100 mm^3 (Day 0 in FIG. 14), the animals were randomized and treated with either vehicle (sterile PBS) or anti-Axl chimeric antibody 10G5 at 20 mg/kg, by intraperitoneal (i.p.) injections twice weekly for 4 weeks.
To compare the anti-tumor effects of two variants of the chimeric antibody c10G5—wt and defucosylated—we used a mouse xenograft model of human non-small cell lung cancer (NSCLC). The human NSCLC A549 cells (ATCC #CCL-185) A549 cells were propagated in vitro as a monolayer culture in DMEM medium supplemented with 10% FBS, 2 mM L-Glutamine, 100 U/ml penicillin and 100 μg/ml streptomycin, 0.01M HEPES buffer, 0.45% D-(+)-glucose, 1 mM sodium pyruvate. SCID mice were implanted subcutaneously (s.c.) into the flank with 5×10^6 A549 cells resuspended in serum-free medium/Matrigel (1:1). […]

Substance: Erbitux: Anti-EGFR therapeutic antibody cetuximab [reference compound]
- Significance of single-agent effect versus isotype control (Synagis): statistically not significant
